These results are taken from PMC3034713, “Targeting Vascular NADPH Oxidase 1 Blocks Tumor Angiogenesis through a PPARα Mediated Mechanism” (PLoS ONE, 2011).

The assay has as its system 135 different targets including ROS producing and redox-sensitive enzymes. Nature of the assay: Pharmacological profiling of 135 different targets. To be noted: 10 µM.

The structures appear in SMILES notation.

In the case of `Cc1c2c(=O)n(-c3ccccc3Cl)[nH]c2cc(=O)n1Cc1ccccn1` [GKT136901], the “inhibition in profiling of 135 different targets” value is on record as “low or no inhibition”.
